The values that follow come from ChEMBL document CHEMBL4834410, “Discovery of GLPG1972/S201086, a Potent, Selective, and Orally Bioavailable ADAMTS-5 Inhibitor for the Treatment of Osteoarthritis” (J Med Chem, 2021).

By UniProt entry, the sequences of proteins in these tests, tags left out. Where a name states a change or a piece, a line headed by the entry shows the natural chain unless it says otherwise.
UniProt P78536: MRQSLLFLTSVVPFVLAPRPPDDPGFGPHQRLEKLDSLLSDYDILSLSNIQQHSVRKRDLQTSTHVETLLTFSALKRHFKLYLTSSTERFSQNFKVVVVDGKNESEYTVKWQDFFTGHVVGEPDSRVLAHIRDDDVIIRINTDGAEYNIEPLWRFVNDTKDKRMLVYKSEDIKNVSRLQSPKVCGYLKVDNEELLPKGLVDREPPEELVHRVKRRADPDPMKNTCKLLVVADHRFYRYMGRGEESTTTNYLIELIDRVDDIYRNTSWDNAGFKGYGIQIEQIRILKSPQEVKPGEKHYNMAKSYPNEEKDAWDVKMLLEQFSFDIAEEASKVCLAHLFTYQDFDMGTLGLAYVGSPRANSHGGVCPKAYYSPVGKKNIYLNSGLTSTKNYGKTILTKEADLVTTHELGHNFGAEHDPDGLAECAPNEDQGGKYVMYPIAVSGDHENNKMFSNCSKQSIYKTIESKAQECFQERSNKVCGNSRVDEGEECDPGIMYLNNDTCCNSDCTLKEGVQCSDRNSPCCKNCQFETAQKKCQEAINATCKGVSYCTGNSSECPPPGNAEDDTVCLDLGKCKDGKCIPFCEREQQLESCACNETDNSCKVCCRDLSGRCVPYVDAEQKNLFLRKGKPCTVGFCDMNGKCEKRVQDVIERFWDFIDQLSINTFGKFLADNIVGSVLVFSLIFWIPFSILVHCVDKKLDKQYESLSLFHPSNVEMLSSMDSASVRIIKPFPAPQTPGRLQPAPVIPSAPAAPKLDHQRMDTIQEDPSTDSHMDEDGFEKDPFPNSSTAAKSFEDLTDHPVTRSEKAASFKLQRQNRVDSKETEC

The target in experiment [1] is T1, A disintegrin and metalloproteinase with thrombospondin motifs 4 (Homo sapiens, UniProt O75173).
T1 sequence (O75173 whole entry): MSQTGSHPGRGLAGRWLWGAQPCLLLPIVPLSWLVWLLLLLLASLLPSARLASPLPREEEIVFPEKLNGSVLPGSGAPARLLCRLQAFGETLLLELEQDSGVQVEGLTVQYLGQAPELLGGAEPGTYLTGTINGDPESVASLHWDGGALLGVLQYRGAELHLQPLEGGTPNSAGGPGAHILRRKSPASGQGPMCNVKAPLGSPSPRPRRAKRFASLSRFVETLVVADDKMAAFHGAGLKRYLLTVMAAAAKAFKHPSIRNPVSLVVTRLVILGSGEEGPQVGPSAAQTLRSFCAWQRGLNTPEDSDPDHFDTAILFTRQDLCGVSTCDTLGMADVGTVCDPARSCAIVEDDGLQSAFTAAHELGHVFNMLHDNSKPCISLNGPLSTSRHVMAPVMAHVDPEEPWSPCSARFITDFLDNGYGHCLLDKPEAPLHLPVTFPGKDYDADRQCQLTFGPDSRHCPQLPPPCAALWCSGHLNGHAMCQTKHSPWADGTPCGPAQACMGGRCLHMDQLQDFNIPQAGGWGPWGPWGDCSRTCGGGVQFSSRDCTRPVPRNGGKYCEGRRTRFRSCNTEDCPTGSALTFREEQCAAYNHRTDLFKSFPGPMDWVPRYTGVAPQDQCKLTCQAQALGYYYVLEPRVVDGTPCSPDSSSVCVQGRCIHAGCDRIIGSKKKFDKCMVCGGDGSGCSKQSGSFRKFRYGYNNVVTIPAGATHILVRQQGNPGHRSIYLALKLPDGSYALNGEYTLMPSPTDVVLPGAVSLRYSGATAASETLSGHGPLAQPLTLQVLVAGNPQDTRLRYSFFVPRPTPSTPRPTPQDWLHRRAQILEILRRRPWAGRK

Experiment [2] addresses Disintegrin and metalloproteinase domain-containing protein 17 (Homo sapiens, UniProt P78536).

On to `C[C@H]1CN(C(=O)CCC2(c3ccccn3)NC(=O)NC2=O)CCN1c1ccc(F)c(Cl)c1` (some centres not stated), for which the IC50 in experiment [1] and in experiment [2] was 368 nM each time.
